Here are results for one molecule from patent US12297244B2, “Systems and methods for inhibiting γ-secretase production of amyloid-β peptides” (Rensselaer Polytechnic Institute, priority 2020, dated 2025).

Protein sequences, listed by entry. Tags and fused reporters are not part of them. Residues count along the entry.
UniProt P05067, whole entry: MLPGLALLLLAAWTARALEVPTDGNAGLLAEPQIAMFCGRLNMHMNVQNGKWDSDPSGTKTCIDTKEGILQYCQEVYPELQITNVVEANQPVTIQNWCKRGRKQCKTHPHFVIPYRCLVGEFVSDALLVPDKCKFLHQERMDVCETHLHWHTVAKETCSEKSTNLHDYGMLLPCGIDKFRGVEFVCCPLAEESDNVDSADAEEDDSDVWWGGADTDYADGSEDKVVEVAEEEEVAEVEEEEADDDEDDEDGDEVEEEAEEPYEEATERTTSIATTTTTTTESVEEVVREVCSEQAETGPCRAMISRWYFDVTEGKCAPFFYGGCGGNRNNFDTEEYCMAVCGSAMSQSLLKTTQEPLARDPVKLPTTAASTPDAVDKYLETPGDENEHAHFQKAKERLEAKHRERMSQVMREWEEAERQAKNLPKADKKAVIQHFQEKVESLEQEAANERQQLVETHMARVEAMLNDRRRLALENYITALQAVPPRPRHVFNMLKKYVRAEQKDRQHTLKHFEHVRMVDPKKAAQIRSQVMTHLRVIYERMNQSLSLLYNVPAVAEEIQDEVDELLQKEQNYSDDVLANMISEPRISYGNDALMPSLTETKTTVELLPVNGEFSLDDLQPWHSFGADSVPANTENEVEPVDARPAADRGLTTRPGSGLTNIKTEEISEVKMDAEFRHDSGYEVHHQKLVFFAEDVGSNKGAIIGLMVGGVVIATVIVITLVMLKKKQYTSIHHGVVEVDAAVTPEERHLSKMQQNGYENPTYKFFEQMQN
UniProt P05067, 699-726 limits assumed: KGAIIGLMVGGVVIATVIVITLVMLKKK

The IC50 is the concentration that inhibits the measured activity by half.

Test [1] deals with γ-secretase in the HeLa membrane (Homo sapiens, UniProt P05067). The test can be described thus: AlphaLISA γ-secretase assay with biotinylated Sb4 (APP sequence) substrate. The following applies: read-out: IC50 in AlphaLISA γ-secretase assay; FIG. 7. The protocol:
Referring now to FIG. 1, and without wishing to be bound by theory, γ-secretase cleaves within the transmembrane domain of the amyloid precursor protein (APPTM) to release Aβ, which aggregates to form neurotoxic oligomers and fibrils. […] Formula III decreased the production of Aβ40 and Aβ42 by γ-secretase in a dose dependent manner (FIG. 2). An IC50 value of 1.9 μM was obtained for the inhibition of Aβ42 production and 3.9 μM for the inhibition of Aβ40 production. […] Similar inhibition effects were also observed in a gel-based assay using MBP-APPTM fusion protein as the substrate and the presenilin homolog (PSH) MAMRE50 as an enzyme.
For orientation: In Alpha technology, singlet oxygen from a donor bead excites a nearby acceptor bead.

The target in test [2] is APPTM (Homo sapiens, UniProt P05067). Kind of test: NMR titration and mass spectroscopy binding to APPTM. To be noted: NMR titration, mass spectroscopy. The text has this:
Compound N1 inhibits A production in AlphaLISA-secretase assay (see FIG. 8A). Further, N1 binds APPTM at the C-terminal region, non-covalently in NMR titration (see FIG. 8B).

Regarding `CC(C)[C@H](NC(=O)c1cc(C(C)(C)C)cc(C(C)(C)C)c1)C(=O)N[C@@H](CSC(c1ccccc1)(c1ccccc1)c1ccccc1)C(=O)O`, the IC50 in test [1] stood at 100 nM. In addition, in test [2], the “binding to APPTM” value is reported as “bind non-covalently to C-terminal region of APPTM”.
